# Ab-14 heavy chain CDR variants: yeast mating affinities

Data: MIT Lincoln Laboratory AlphaSeq set, Li et al. 2023, doi:10.1038/s41467-023-39022-2, as distributed in FLAb.

Antigen: PDVDLGDISGINAS, a 14-residue peptide of the SARS-CoV-2 spike HR2 region.

Ab-14 is the parent antibody, in scFv form: VH, then a (GGGGS)3 linker, then VL. The light chain is unchanged in all variants.
VH: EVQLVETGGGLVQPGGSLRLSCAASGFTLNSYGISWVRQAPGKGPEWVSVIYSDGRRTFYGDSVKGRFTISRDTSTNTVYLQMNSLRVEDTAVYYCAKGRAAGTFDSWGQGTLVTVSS
VL: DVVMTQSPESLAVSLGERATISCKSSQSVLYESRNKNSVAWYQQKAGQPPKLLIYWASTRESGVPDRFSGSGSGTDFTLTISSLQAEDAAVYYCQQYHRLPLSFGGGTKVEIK

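The variants were designed computationally from a first round of random CDR variants and then made and measured. Their group label is 14H_GPLM_HC (GPLM: also part of the Gaussian process libraries; HC: hill climbing; a sequence that several methods proposed may carry one label only). The assay is AlphaSeq: two haploid yeast populations carry antibody and antigen on their surface. The frequency of each diploid, read from paired DNA barcodes, reflects how well the two displayed proteins bind. Scores were corrected for input abundance and mapped to Kd with protein pairs of known affinity run in the same pool. Mating was done six times.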

Variants are written as CDR1, CDR2 and CDR3 of the heavy chain (limits as in the source). Parent: GFTLNSYGIS, VIYSDGRRTFYGDSVK, GRAAGTFDS.
Scale: log10 of Kd in nM, estimated from mating counts; low values are strong binders.
A pair that was not seen in that replicate is written "n.d."; this usually means weak binding, but a binder can also be missed.

| CDR-H1 | CDR-H2 | CDR-H3 | log10 Kd (nM) by replicate | empty controls |
|---|---|---|---|---|
| GFTLNDYGIS | VIYSDGRRTFYIDSVK | GLAAGTFDS | 0.35 0.98 0.91 0.58 1.69 1.47 | 0 of 18 |
| GFTLNDYGIS | VIYSDGRRQFYIDSVK | GRAAGTFDS | 0.10 2.08 0.53 2.09 0.35 0.88 | 0 of 18 |
| GFWLNQYGIS | VIYSDGRRTFYADSVK | GRAAGTFDS | 1.07 1.88 n.d. n.d. n.d. 1.41 | 0 of 18 |
| GFTLNEYGIS | VIYSDGRRTFYYDSVK | GRHAGTFDS | n.d. n.d. n.d. n.d. n.d. n.d. | 0 of 18 |
| GFQLNEYGIS | VIYSDGRRTFYGDSVK | GRAAVTFDQ | n.d. n.d. n.d. n.d. n.d. n.d. | 0 of 18 |
| GFDLNSYGIS | VIYSDGRRTFYGDSVK | GRNAGTFNS | 2.13 2.06 1.91 1.38 2.22 n.d. | 1 of 18 (2.01) |
| GFTLNEYGIS | VIYSDGRRTFYGDSVK | GRRAVTFDQ | n.d. n.d. n.d. n.d. n.d. n.d. | 0 of 18 |
| GFTLNSYGIS | VIYSDGRRTFYDDSVK | GQLAGTFDD | 1.42 1.78 1.27 1.21 1.98 1.83 | 0 of 18 |
| GFTLNEYGIS | VIYSDGRRTFYGDSVK | GEAAGTFDF | n.d. 0.66 n.d. n.d. n.d. n.d. | 0 of 18 |
| GFTLNEYGIS | VIYSDGRRTFYTDSVK | GRFAGTFDA | 0.65 0.21 0.11 -0.10 0.44 -0.01 | 0 of 18 |
| GFTLNEYGIS | VIYSDGRRTMYTDSVK | GRTAGTFDS | 0.31 1.71 -0.41 0.66 0.34 0.35 | 0 of 18 |
| GFDLNSYGIS | VIYSDGRRTFYGDSVK | GRAAGFFTS | n.d. n.d. n.d. n.d. n.d. n.d. | 0 of 18 |
| GFTINSYGIS | VIYSDGRRTFYSDSVK | GRTAGTFDS | 0.83 0.56 0.59 0.64 0.44 0.51 | 1 of 18 (3.11) |
| GFVLNQYGIS | VIYSDGRRTFYSDSVK | GRAAGTFDS | 0.52 0.77 0.52 0.39 0.30 0.43 | 1 of 18 (2.98) |
| GFELNEYGIS | VIYSDGRRTFYTDSVK | GRAAGTFDS | 1.15 0.74 0.61 1.71 1.30 0.53 | 0 of 18 |
| GFTLNDYGIS | VIYSDGRRTMYIDSVK | GRAAGTFWS | n.d. n.d. n.d. n.d. n.d. n.d. | 0 of 18 |
| GFSLNEYGIS | VIYSDGRRTFYKDSVK | GRQAGTFDS | 0.35 0.04 0.04 0.04 0.28 0.10 | 2 of 18 (2.68) |
| GFTLNSYGIS | VIYSDGRRTFYTDSVK | GVEAGTFDS | 0.66 0.95 0.32 0.19 0.22 0.54 | 1 of 18 (2.03) |
| GFTLDSYGIS | VIYSDGRRTFYGDSVK | GRIAGTFDS | 0.64 1.26 0.40 0.83 0.38 1.26 | 1 of 18 (2.51) |
| GFTLNEYGIS | VIYSDGRRTFYDDSVK | GRLAGTFDS | 0.31 0.82 0.11 -0.30 0.44 0.59 | 0 of 18 |
| GFDLNSYGIS | VIYSDGRRTFYGDSVK | GRAAGHFRS | n.d. n.d. n.d. n.d. n.d. n.d. | 0 of 18 |
| GFTLNDYGIS | VIYSDGRRTFYGDSVK | GRWAGTFIS | 0.34 1.17 1.75 0.29 0.75 2.02 | 0 of 18 |
| GFSLNDYGIS | VIYSDGRRTFYGDSVK | GRTAGTFIS | 0.66 n.d. n.d. n.d. n.d. n.d. | 0 of 18 |
| GFTLNDYGIS | VIYSDGRRTFYSDSVK | GRAAGQFDS | n.d. n.d. n.d. n.d. n.d. n.d. | 0 of 18 |
| GFTLNEYGIS | VIYSDGRRTFYSDSVK | GRAAGQFDS | 0.73 1.06 0.85 1.25 n.d. 3.61 | 0 of 18 |
| GFTLNEYGIS | VIYSDGRRTFYTDSVK | GRMAGTFVS | n.d. n.d. n.d. n.d. n.d. n.d. | 0 of 18 |
| GFTLNDYGIS | VIYSDGRRTFYGDSVK | GRRAGTFDS | 0.63 0.73 0.60 0.51 0.59 0.92 | 1 of 18 (3.87) |
| GFTLNQYGIS | VIYSDGRRTAYGDSVK | GRAAGTFDS | -0.04 -0.02 -0.22 0.15 -0.25 0.28 | 1 of 18 (1.41) |
| GFTLNSYGIS | VIYADGRRTFYGDSVK | GRAAGTFTL | n.d. 1.41 n.d. n.d. n.d. n.d. | 0 of 18 |
| GFTLNQYGIS | VIYSDGKRTFYSDSVK | GQAAGTFDS | 0.64 0.51 0.05 -0.03 0.23 0.28 | 2 of 18 (1.82) |
| GFSLNEYGIS | VIYSDGRRTFYSDSVK | GRAGGTFDS | 0.94 0.53 0.64 0.64 0.21 0.80 | 0 of 18 |
| GFTLNSYGIS | VIYSDGRRTFYDDSVK | GQLAGTFDT | n.d. 1.22 0.95 2.31 0.91 1.04 | 0 of 18 |
| GFTLNSYGIS | VIYSDGRRAFYDDSVK | GQLAGTFDS | 1.12 0.40 n.d. n.d. n.d. n.d. | 1 of 18 (0.20) |
| GFTLNDYGIS | VIYSDGRRTQYSDSVK | GRCAGTFDS | n.d. n.d. 2.04 2.08 n.d. n.d. | 0 of 18 |
| GFTLNEYGIS | VIYSDGVRTFYGDSVK | GRAAGTFDS | 0.46 0.62 0.72 0.27 0.19 0.62 | 0 of 18 |
| GFTLNQYGIS | VIYSDGRRTFYADSVK | GNAAGTFDS | 0.89 0.35 1.43 0.50 0.52 0.75 | 0 of 18 |
| GFTLNSYGIS | VIYSDGRRTFYDDAVK | GQLAGTFDS | 1.12 0.85 1.39 0.67 0.92 1.18 | 1 of 18 (2.07) |
| GFTLNSYGIS | VIYSDGRRTFYSDSVK | GRSAGTFDT | n.d. n.d. n.d. n.d. 1.96 n.d. | 0 of 18 |
| GFALNQYGIS | VIYSDGRRTFYADSVK | GRAAGTFDS | n.d. n.d. n.d. n.d. n.d. n.d. | 0 of 18 |
| GFSLNDYGIS | VIYSDGRRTFYGDSVK | GRAALTFDV | n.d. n.d. n.d. n.d. n.d. 2.27 | 0 of 18 |
| GFDLNSYGIS | VIYSDGRRTFYCDSVK | GRAAVTFDS | 1.83 1.37 4.16 0.94 1.24 1.27 | 2 of 18 (2.15) |
| GFTLNQYGIS | VIYSDGRRTFYADSVK | GRAAGQFDS | 1.20 n.d. n.d. 0.47 2.42 1.17 | 0 of 18 |
| GFTLNEYGIS | VIYSDGRRTFYGDAVK | GRFAGTFDS | 1.18 0.86 0.88 1.08 1.35 1.10 | 1 of 18 (2.63) |
| GFTLNSYGIS | VIYSDGLRTFYDDSVK | GQLAGTFDS | 1.10 1.14 0.94 0.88 1.27 1.68 | 0 of 18 |
| GFTLNMYGIS | VIYSDGKRTFYSDSVK | GRAAGTFDS | 1.98 1.65 1.12 0.98 2.09 2.00 | 1 of 18 (2.27) |
| GFTLNSYGIS | VIYSDGRRTFYSDSVK | GRAGVTFDV | n.d. n.d. n.d. n.d. n.d. n.d. | 1 of 18 (2.71) |
| GFTLNSYGIS | VIYSDGRRTQYSDSVK | GQAAGTFDS | n.d. n.d. n.d. n.d. 2.45 n.d. | 1 of 18 (2.06) |

The authors' rule: three or more of the six replicates give a measured affinity, fewer mean a poor binder.
The parent sequence was in this pool as ten entries: three were never detected, three once, and four in most replicates, with averages from 0.34 to 2.37.
Values of this round are not directly comparable with the first-round values of the same sequences.
Three control strains display no target. For all heavy chain designs, 1% of the pairings with them gave a signal, with a median of 2.08 and one signal in twenty below 0.84, so weak values seen in few replicates may be background. The control count says in how many pairings with the empty strains this scFv gave a signal, with their mean in brackets.